This assay deals with SARS-CoV-2 MPro (Severe acute respiratory syndrome coronavirus 2, UniProt P0DTD1). Kind of assay: MPro activity assay (de-quenching of Edans fluorescence on cleavage of a Dabcyl/Edans peptide). Particulars: read-out: % activity MPro.

In the case of `O=C(Cn1nnc2ccccc21)N(Cc1ccsc1)c1ccc(-c2ccccc2)cc1` [17a], the activity at 10 µM is 83.8 ± 1.8% and the activity at 25 µM came out at 88.9 ± 8.4%.

(Values after article PMC10323144, “Garbage in, garbage out: how reliable training data improved a virtual screening approach against SARS-CoV-2 MPro” (Frontiers in Pharmacology, 2023).)
